Reference: PMC6384821, “Novel Approach for the Search for Chemical Scaffolds with Activity at Both Acetylcholinesterase and the α7 Nicotinic Acetylcholine Receptor: A Perspective on Scaffolds with Dual Activity for the Treatment of Neurodegenerative Disorders” (Molecules, 2019)

Protein sequences, listed by entry. Tags and fused reporters are not part of them. Residues count along the entry.
UniProt O42275, 24-633: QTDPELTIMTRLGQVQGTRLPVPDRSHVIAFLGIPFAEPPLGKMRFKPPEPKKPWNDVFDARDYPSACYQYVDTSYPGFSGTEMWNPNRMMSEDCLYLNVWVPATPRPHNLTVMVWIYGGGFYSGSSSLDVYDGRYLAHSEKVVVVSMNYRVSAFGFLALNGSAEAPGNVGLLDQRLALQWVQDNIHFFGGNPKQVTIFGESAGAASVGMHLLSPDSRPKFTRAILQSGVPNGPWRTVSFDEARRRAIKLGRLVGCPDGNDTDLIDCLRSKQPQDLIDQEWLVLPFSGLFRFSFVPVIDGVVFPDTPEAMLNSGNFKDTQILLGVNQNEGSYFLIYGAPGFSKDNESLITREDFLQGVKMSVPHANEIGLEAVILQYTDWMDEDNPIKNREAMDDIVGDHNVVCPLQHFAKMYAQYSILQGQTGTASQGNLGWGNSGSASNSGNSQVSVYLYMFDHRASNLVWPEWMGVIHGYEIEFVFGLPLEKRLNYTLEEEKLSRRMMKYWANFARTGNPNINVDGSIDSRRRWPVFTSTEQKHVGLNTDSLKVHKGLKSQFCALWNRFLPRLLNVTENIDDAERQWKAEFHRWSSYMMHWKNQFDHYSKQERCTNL

Target: T1, AChE enzyme from Electrophorus electricus (Electrophorus electricus, UniProt O42275)
T1 construct: purchased Sigma-Aldrich Co., LLC
Experiment: biochemical
Method: For assessment of AChE inhibitory activity, we used a colorimetric microplate assay based on the colour change during reaction of ACh with Ellman’s reagent.
In vitro AChE inhibitory activity was studied using the colorimetric method of Ellman using the AChE enzyme from Electrophorus electricus. To a 96-well microplate, test solutions were applied along with 0.2 mg/mL bovine serum albumin, 1 mM 5,5-dithiobis-(2-nitro-benzoic acid), and 0.05 mM acetylthiocholine iodide. The reaction was initiated by addition of 0.20 units/mL AChE enzyme and followed by colorimetric detection performed at 405 nm. Experiments were conducted in triplicate.
Electrophysiological data were analysed using pClamp 10.2 (Molecular Devices, San Jose, CA, USA). During analysis, traces were baseline subtracted and responses to individual applications quantified as peak-current amplitudes. […] For evaluation of the inhibitory activity, the percentage of remaining peak-current amplitudes relative to that of the AChcontrol application was calculated. […] AChE inhibition data were analysed using GraphPad Prism 7. Absorption readings from the AChE inhibition assay were plotted versus time and linear regression was performed. From the obtained slopes, percentages of inhibition were calculated, and IC50 values were determined from non-linear regression calculations.

`CNC(=O)Oc1ccc2c(c1)[C@]1(C)CCN(C)[C@@H]1N2C` [Compound 5, Physostigmine, reference compound] gave an IC50 (AChE IC50) of 780 nM and an IC50 (AChE pIC50 ± SEM) of 741 nM.
